{"source": "patent US20130143965A1", "about": "“MICROBI[…] AND STABLE SOLUTIONS OF GAMMA-HYDRO[…] FOR THE TREATMENT OF NARCOLEPSY” (Jazz Pharmaceuticals, Inc., priority 1998, published 2013)", "experiment": "Solubility of sodium oxybate (GHB) in aqueous solution versus pH", "settings": "at about pH 4", "data": [{"smiles": "O=C(O)CCCO", "note": "[Sodium Oxybate, sodium oxybate]", "values": [{"measurement": "maximum amount of sodium-GHB that can be dissolved", "value": "about 450 mg/ml"}]}]}
